Test results reported in patent US10894784B2, “Heteroarylbenzimidazole compounds” (BAYER PHARMA AKTIENGESELLSCHAFT, priority 2015, dated 2021).

The chains behind the UniProt entries cited, without tags or fusion partners. Where a name states a change or a piece, a line headed by the entry shows the natural chain unless it says otherwise.
UniProt Q9UHD2: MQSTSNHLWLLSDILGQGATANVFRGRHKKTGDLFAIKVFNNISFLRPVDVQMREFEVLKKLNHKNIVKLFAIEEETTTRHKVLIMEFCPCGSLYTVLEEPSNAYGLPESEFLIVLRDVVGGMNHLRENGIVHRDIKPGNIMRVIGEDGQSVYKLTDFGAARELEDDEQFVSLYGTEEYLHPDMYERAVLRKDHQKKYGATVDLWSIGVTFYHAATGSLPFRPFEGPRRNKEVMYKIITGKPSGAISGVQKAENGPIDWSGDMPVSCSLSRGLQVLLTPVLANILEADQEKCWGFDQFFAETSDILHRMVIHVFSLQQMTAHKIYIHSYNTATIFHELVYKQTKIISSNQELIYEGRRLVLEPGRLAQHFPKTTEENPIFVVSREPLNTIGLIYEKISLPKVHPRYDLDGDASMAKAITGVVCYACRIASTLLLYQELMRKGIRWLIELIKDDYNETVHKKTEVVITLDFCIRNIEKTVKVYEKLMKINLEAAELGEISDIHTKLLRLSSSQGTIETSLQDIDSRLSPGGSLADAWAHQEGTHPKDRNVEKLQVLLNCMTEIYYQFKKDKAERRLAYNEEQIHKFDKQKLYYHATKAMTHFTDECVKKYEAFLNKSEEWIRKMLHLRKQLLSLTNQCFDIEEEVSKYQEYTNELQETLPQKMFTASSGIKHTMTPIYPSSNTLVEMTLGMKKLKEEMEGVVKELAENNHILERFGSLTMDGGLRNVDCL

Molecular target: TBK1 (Homo sapiens (Human), UniProt Q9UHD2)
Assay: TBK1 low ATP kinase assay (in vitro assay 1)
Type: biochemical

Cc1cc(-c2ccc3nc(Nc4cc(CN5CCN(C(=O)CC(F)(F)F)CC5)ccn4)[nH]c3c2)ncn1 [Example 30.01.01, 3,3,3-trifluoro-1-{4-[(2-{[6-(6-methylpyrimidin-4-yl)-1H-benzimidazol-2-yl]amino}pyridin-4-yl)methyl]piperazin-1-yl}propan-1-one]
IC50: 15 nM
